Test results taken from patent US20160256560A1, “Environmentally Sensitive Compositions” (priority 2010, published 2016).

Experiment: pH-dependence of insertion into lipid bilayer (pKa)

Structure (SMILES): CC[C@H](C)[C@H](NC(=O)[C@@H]1CCCN1C(=O)[C@H](CC(N)=O)NC(=O)[C@H](CC(=O)O)NC(=O)[C@H](CCC(=O)O)NC(=O)[C@H](CC(=O)O)NC(=O)[C@H](CC(=O)O)NC(=O)[C@@H](N)CC(=O)O)C(=O)N[C@@H](Cc1ccc(O)cc1)C(=O)N[C@@H](Cc1c[nH]c2ccccc12)C(=O)N[C@@H](C)C(=O)N[C@@H](CCCNC(=N)N)C(=O)N[C@@H](Cc1ccc(O)cc1)C(=O)N[C@@H](C)C(=O)N[C@@H](Cc1c[nH]cn1)C(=O)N[C@@H](Cc1c[nH]c2ccccc12)C(=O)N[C@@H](CC(C)C)C(=O)N[C@@H](Cc1ccccc1)C(=O)N[C@H](C(=O)N[C@H](C(=O)N1CCC[C@H]1C(=O)N[C@@H](CC(C)C)C(=O)N[C@@H](CC(C)C)C(=O)N[C@@H](CC(C)C)C(=O)N[C@@H](CC(C)C)C(=O)N[C@@H](Cc1c[nH]cn1)C(=O)NCC(=O)N[C@@H](C)C(=O)N[C@@H](CC(C)C)C(=O)N[C@@H](CC(C)C)C(=O)N[C@H](C(=O)N[C@@H](CC(N)=O)C(=O)N[C@@H](C)C(=O)N[C@@H](CC(N)=O)C(=O)N[C@@H](CCC(=O)O)C(=O)N[C@@H](CS)C(=O)N[C@H](C(=O)O)[C@@H](C)O)C(C)C)[C@@H](C)O)[C@@H](C)O
- Notes: pKa of Yana's same variant (H2N2): pKa-5
